From ChEMBL document CHEMBL1275533, “In vitro antibacterial activity of vertilmicin and its susceptibility to modifications by the recombinant AAC6'-APH2'' enzyme” (2008)

Key:
Morganella morganii = assay: Antibacterial activity against non-gentamicin-resistant Morganella morganii clinical isolate after 18 hrs by agar dilution method; type: functional
Escherichia coli [1] = assay: Antibacterial activity against non-gentamicin-resistant Escherichia coli clinical isolate after 18 hrs by agar dilution method; type: functional
Escherichia coli [2] = settings: ATCC 25922

GENTAMICIN
0.5 µg/mL: MIC50 (Morganella morganii) | MIC50 (Escherichia coli [1]) | MIC (Escherichia coli [2])
